{
  "sequences": {"note": "The chains behind the UniProt entries cited, without tags or fusion partners. Where a name states a change or a piece, a line headed by the entry shows the natural chain unless it says otherwise.", "UniProt P41145": "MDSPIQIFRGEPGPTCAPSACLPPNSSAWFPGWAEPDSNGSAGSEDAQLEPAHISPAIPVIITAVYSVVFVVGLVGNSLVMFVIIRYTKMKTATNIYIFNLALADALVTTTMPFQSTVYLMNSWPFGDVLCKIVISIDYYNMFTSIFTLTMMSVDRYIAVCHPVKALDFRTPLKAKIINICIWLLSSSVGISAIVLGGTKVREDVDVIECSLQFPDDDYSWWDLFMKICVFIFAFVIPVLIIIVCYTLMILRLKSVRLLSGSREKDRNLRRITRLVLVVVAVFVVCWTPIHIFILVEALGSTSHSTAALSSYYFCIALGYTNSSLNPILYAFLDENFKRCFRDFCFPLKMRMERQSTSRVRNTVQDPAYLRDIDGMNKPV", "UniProt P35372, whole entry": "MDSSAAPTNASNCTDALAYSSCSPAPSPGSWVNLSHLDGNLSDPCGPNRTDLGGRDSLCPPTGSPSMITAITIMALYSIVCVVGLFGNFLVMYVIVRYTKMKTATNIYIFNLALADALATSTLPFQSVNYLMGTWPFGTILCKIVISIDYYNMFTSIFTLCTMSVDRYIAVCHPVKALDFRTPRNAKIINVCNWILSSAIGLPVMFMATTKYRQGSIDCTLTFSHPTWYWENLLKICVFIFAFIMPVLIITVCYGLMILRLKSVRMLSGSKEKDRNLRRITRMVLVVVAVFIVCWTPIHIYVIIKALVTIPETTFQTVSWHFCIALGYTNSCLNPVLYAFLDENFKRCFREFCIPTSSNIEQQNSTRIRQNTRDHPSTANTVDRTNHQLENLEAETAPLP"},
  "source": "paper PMC8434392",
  "about": "“Harnessing the Anti-Nociceptive Potential of NK2 and NK3 Ligands in the Design of New Multifunctional μ/δ-Opioid Agonist–Neurokinin Antagonist Peptidomimetics” (Molecules, 2021)",
  "key": {"[1]": {"biological_target": "T1, human recombinant KOR (Homo sapiens, UniProt P41145)", "T1 construct": "expressed in transfected cells; host or cells: CHO cells (gift from Prof. Girolamo Calo', Ferrara University)", "assay": "Calcium mobilization assay, CHO KOR cells with Gαqi5", "assay_type": "cell-based", "details": "intrinsic activity: Emax of ligand / Emax of dynorphin A"}, "[2]": {"biological_target": "T2, human recombinant MOR (Homo sapiens, UniProt P35372)", "assay": "Calcium mobilization assay, CHO MOR cells with Gαqi5", "assay_type": "cell-based", "design": "expressed in transfected cells; host or cells: CHO cells (gift from Prof. Girolamo Calo', Ferrara University)"}, "[3]": {"biological_target": "T2, human recombinant MOR", "details": "intrinsic activity; data from reported literature ref 30; cited from earlier work"}},
  "note": "Where two headings read alike, the source gives them in different places. Marks after values point to notes of the source that are not given here.",
  "data": [
    {"smiles": "Cc1cc(O)cc(C)c1C[C@H](N)C(=O)N[C@H](CCCNC(=N)N)C(=O)N[C@@H](Cc1ccccc1)C(=O)N[C@@H](CCCCN)C(N)=O", "note": "[Dmt-DALDA, H-Dmt-D-Arg-Phe-Lys-NH2, reference compound]", "values": [
      {"measurement": "KOR α ± SEM", "setting": "[1]", "value": "0.55 ± 0.02"},
      {"measurement": "MOR α ± SEM", "setting": "[2]; intrinsic activity: Emax of ligand / Emax of dermorphin", "value": "1.00 ± 0.06"}
    ]},
    {"smiles": "C[C@@H](NC(=O)[C@@H](N)Cc1ccc(O)cc1)C(=O)N[C@@H](Cc1ccccc1)C(=O)NCC(=O)N[C@@H](Cc1ccc(O)cc1)C(=O)N1CCC[C@H]1C(=O)N[C@@H](CO)C(N)=O", "note": "[dermorphin, reference compound]", "values": [
      {"measurement": "EC50", "setting": "[2]; calcium mobilization, CHO MOR Gαqi5, maximum tested concentration 10 µM, read-out: MOR EC50 ± SEM", "value": "4.64 ± 0.57", "unit": "nM"}
    ]},
    {"smiles": "CC[C@H](C)[C@H](NC(=O)[C@H](CCCNC(=N)N)NC(=O)[C@H](CCCNC(=N)N)NC(=O)[C@H](CC(C)C)NC(=O)[C@H](Cc1ccccc1)NC(=O)CNC(=O)CNC(=O)[C@@H](N)Cc1ccc(O)cc1)C(=O)N[C@@H](CCCNC(=N)N)C(=O)N1CCC[C@H]1C(=O)N[C@@H](CCCCN)C(=O)N[C@@H](CC(C)C)C(=O)N[C@@H](CCCCN)C(=O)N[C@@H](Cc1c[nH]c2ccccc12)C(=O)N[C@@H](CC(=O)O)C(=O)N[C@@H](CC(N)=O)C(=O)N[C@@H](CCC(N)=O)C(=O)O", "note": "[dynorphin A]", "values": [
      {"measurement": "MOR α ± SEM", "setting": "[3]", "value": "0.83 ± 0.10 ^a"}
    ]}
  ]
}
